This passage reports PappAtoB results from paper PMC10740061 (Food Chemistry: X, 2023).

Molecules are shown by their SMILES. Marks after values point to notes of the source that are not given here.

This data set has as its system Caco-2 monolayer. Description: Caco-2 monolayer transmembrane transport, apical to basolateral. In kind it is in vitro ADME, human. The following applies: WD (wheat flour digested products) 400 µg/mL; 40 µM flavonoid; 6 h; A to B; mean ± SD (n = 3).

For the molecule `O=c1c(O)c(-c2ccc(O)c(O)c2)oc2cc(O)cc(O)c12` [Quercetin], the PappAtoB was 10.83 ± 0.25^c × 10^-6 cm/s.
